Values of other authors, collected in paper PMC7000758 (Nature Communications, 2020).

Target: VEGF receptors
Conditions: cited from earlier work

CCN(CC)CCNC(=O)c1c(C)[nH]c(/C=C2\C(=O)Nc3ccc(F)cc32)c1C [sunitinib]
Ki (read-out: reported level required to inhibit VEGF receptors, called Ki for VEGFR2 and VEGFR1): 8 nM | reported level required to inhibit VEGF receptors (tissue equivalent of 8 nM): ~ 4 ng/g
